Results reported in article PMC12205653 (The Journal of Biological Chemistry, 2025).

T1: His10-LgBiT-CAPNS1 M224STOP (human, UniProt P04632 60-223)
T1 construct: CAPNS1, human, PEF(S) domain from residue 60 with a stop codon at position M224 (EF5 completely removed); also called CAPNS1 with complete truncation of EF5; source: E. coli, purified; not shown: LgBiT, N-terminal, kept
T1 sequence (looked up): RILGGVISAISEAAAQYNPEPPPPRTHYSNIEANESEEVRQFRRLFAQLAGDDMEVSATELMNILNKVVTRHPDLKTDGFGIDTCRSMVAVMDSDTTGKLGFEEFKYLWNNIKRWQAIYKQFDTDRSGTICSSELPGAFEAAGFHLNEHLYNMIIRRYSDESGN

T2: His10-LgBiT-CAPNS1 (human, UniProt P04632 60-268)
T2 construct: CAPNS1, calpain small regulatory subunit, human, penta-EF-hand domain PEF(S), residues 60-268; Cloned in pET16b; also called CAPNS1 PEF(S) biosensor component; source: E. coli BL21 RIPL; not shown: His10, N-terminal, kept; LgBiT, N-terminal, kept
T2 sequence (looked up): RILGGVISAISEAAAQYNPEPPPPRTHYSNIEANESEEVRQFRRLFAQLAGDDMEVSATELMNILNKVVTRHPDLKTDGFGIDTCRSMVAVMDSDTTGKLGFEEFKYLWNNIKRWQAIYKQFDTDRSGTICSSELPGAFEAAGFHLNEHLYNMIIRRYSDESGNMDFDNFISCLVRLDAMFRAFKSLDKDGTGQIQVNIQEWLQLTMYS

B1: His6-MBP-SmBiT-CAPN2 (domain or fragment, human, UniProt P17655 524-700, looked up)
chain: DISEDDIDDGFRRLFAQLAGEDAEISAFELQTILRRVLAKRQDIKSDGFSIETCKIMVDMLDSDGSGKLGLKEFYILWTKIQKYQKIYREIDVDRSGTMNSYEMRKALEEAGFKMPCQLHQVIVARFADDQLIIDFDNFVRCLVRLETLFKIFKQLDPENTGTIELDLISWLCFSVL
notes: CAPN2, calpain-2 catalytic subunit, human, penta-EF-hand domain PEF(L), residues 524-700; Cloned in pHT29 (modified pET16b); also called CAPN2 PEF(L) biosensor component; source: E. coli BL21 RIPL; not shown: His6, N-terminal, kept; MBP, N-terminal, kept; SmBiT, N-terminal, kept
B2: His6-MBP-CAPNS1 protein without the LgBiT (domain or fragment)
chain: T2 sequence (looked up)
modifications: His6-MBP carrier left out. Limits 60-268 are printed for the CAPNS1 PEF biosensor constructs (Methods, Fig. 2 and Fig. 5I legends) and are assumed to apply to this LgBiT-less competitor. Assay buffer

Legend:
Details in all cases: both partners purified
[1] = molecular target: T1, His10-LgBiT-CAPNS1 M224STOP; assay: split reporter (BiFC, NanoBiT); purified proteins at 25 nM for each component, 5 mM Ca2+
His10-LgBiT-CAPNS1 = molecular target: T2, His10-LgBiT-CAPNS1; assay: split reporter (BiFC, NanoBiT); fixed 100 nM LgBiT-CAPNS1, increasing SmBiT-CAPN1/2, 5 mM Mg2+ in place of Ca2+; estimated KD from the inflection of the plot assuming first-order kinetics
His6-MBP-SmBiT-CAPN2 = molecular target: B1; assay: split reporter (BiFC, NanoBiT); competition: 25 nM LgBiT-CAPNS1 and 250 nM SmBiT-CAPN2 with increasing concentrations of LgBiT-less CAPNS1

PPI strength, percent of WT [1]	Kd (His10-LgBiT-CAPNS1) [nM]	IC50 (His6-MBP-SmBiT-CAPN2) [nM]	Binder
11 % of WT	1650	–	B1
–	–	463	B2
